Here are results for one substance from patent US12116355B2, “Deuterated 1-piperazino-3-phenyl indanes for treatment of schizophrenia” (H. Lundbeck A/S, priority 2011, dated 2024).

This data set is described as follows: Solubility of salts of Compound (IV). The data set is classed as physicochemical.

On to Dihydrogen phosphate, for which the Solubility stood at 1400 µg/mL and the “pH of solubility solution” value is listed as 4.67.
